{"source": "ChEMBL document CHEMBL5380862", "about": "“Unsymmetrical Phosphodiesters as GPR84 Antagonists with High Blood Exposure for the Treatment of Lung Inflammation” (J Med Chem, 2023)", "type_in_all_cases": "functional, cell-based", "key": {"Neutrophil [1]": {"test_system": "Neutrophil", "test": "Inhibition of cell migration in 3-hydroxydodecanoic acid-stimulated mouse CD11bpositive Ly6Gpositive neutrophils at 0.1 to 1 uM incubated for 1.5 hrs by flow cytometric analysis", "settings": "dose 0.1-1 µM"}, "Monocyte [2]": {"test_system": "Monocyte", "test": "Inhibition of cell migration in 3-hydroxydodecanoic acid-stimulated mouse CD11bpositive Ly6Cpositive monocytes at 1 uM incubated for 1.5 hrs by flow cytometric analysis"}, "Monocyte [3]": {"test_system": "Monocyte", "test": "Inhibition of cell migration in 3-hydroxydodecanoic acid-stimulated mouse CD11bpositive Ly6Cpositive monocytes at 0.1 uM incubated for 1.5 hrs by flow cytometric analysis"}, "Neutrophil [4]": {"test_system": "Neutrophil", "test": "Inhibition of cell migration in 6-n-octylaminoracil-stimulated mouse CD11bpositive Ly6Gpositive neutrophils at 0.1 to 1 uM incubated for 1.5 hrs by flow cytometric analysis", "settings": "dose 0.1-1 µM"}, "Monocyte [5]": {"test_system": "Monocyte", "test": "Inhibition of cell migration in 6-n-octylaminoracil-stimulated mouse CD11bpositive Ly6Cpositive monocyte at 0.1 to 1 uM incubated for 1.5 hrs by flow cytometric analysis", "settings": "dose 0.1-1 µM"}}, "note": "The source made the active and inactive calls. The rule behind the calls is not given here."}
{"smiles": "O=c1nc(OC[C@@H]2COCCO2)cc2n1CCc1cc(C#CC3CC3)ccc1-2", "values": [{"measurement": "inhibition", "setting": "Neutrophil [1]", "result": "Active"}, {"measurement": "inhibition", "setting": "Monocyte [2]", "result": "Active"}, {"measurement": "inhibition", "setting": "Monocyte [3]", "result": "inactive"}, {"measurement": "inhibition", "setting": "Neutrophil [4]", "result": "Active"}, {"measurement": "inhibition", "setting": "Monocyte [5]", "result": "Active"}]}
